Values of other authors in US20060240402A1, “Marine invertebrate gametes and embryos as an assay system for therapeutic screening” (priority 2005, published 2006).

Test system: tubulin
Conditions: reported to inhibit mitosis; cited from earlier work

Structure (SMILES): COc1cc2c(c(OC)c1OC)-c1ccc(OC)c(=O)cc1[C@@H](NC(C)=O)CC2 [Colchicine]
- Effect on tubulin polymerization (reported): significantly affecting tubulin polymerization
